From PubChem BioAssay AID624414 (National Center for Advancing Translational Sciences (NCATS), 2012)
Values joined by “and” are separate entries in the source; they are usually repeats but may differ in a detail not shown here. Equal entries are not always repeated. The list shows a part of the results, in another mix than the full data. Some results for these compounds are left out of this collection, so the calls shown say nothing about other tests. Active and inactive are the calls of the source. No stated cut-off is given here; in the data, active means activation above about 50%; inconclusive means mostly about 30% to 49%; inactive means weaker than that.

Sequences of proteins named here, by UniProt entry; tags and fusion partners are left off.
UniProt Q9GZU1, whole entry: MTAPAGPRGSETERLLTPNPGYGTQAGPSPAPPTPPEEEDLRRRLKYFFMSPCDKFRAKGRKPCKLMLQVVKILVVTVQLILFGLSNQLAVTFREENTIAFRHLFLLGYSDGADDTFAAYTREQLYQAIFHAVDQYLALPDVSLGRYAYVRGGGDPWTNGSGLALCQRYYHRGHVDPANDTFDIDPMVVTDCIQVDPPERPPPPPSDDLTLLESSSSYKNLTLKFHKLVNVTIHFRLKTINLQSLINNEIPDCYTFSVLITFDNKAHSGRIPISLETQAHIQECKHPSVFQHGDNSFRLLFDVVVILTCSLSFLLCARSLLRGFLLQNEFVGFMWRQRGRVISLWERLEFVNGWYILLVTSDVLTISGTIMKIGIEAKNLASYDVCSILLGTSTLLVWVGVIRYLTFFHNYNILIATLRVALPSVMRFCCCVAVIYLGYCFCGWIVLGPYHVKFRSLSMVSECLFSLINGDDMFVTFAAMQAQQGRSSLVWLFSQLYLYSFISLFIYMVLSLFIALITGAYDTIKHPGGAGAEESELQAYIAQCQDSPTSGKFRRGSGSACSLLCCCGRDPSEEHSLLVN

biological target: Mucolipin-1 (Homo sapiens) (UniProt Q9GZU1); assay: qHTS for Agonists of the Human Mucolipin Transient Receptor Potential 1 (TRPML1); details: TRPML1-expressing cells, Ca2+ dye fluorescence, FDSS; stronger effect = higher value; further: 0% is about no effect
Text: Mutations of human Mucolipin transient receptor potential 1 (TRPML1) cause type IV mucolipidosis (ML4), a devastating neurodegenerative disease in young children. […] Currently, there is no treatment for ML4. […] Under physiological conditions, TRPMLs regulate membrane trafficking by transducing information about PI(3,5)P2 levels into changes in juxtaorganellar Ca2+, thereby triggering membrane fusion/fission events in the late endocytic pathways (endolysosomal trafficking). In addition, TRPML1 mediates release of Fe2+ from late endosomes and lysosomes, which is essential for cellular iron metabolism. Thus, impaired ion (Ca2+ and Fe2+) homeostasis underlies lysosomal dysfunction and ML4 phenotypes. In ML4 cells, the problem is twofold. First, defective Ca2+-dependent membrane trafficking due to TRPML1-deficiency causes accumulation of lipids and other bio-materials in the lysosome. The second strike comes from the lysosomal iron overload (due to impairment of TRPML1's Fe2+ conductivity), which converts the accumulated materials into the nondegradable (resistant to lysosomal degradation) lipofuscin (also called aging pigment) in the lysosome. Lipofuscin accumulation dramatically compromises the functions of lysosomes.
Niemann-Pick type C (NPC) disease is another lysosome storage disease (LSD) with severe neurodegeneration during the childhood. Currently, there is no cure for NPC. […] Thus, TRPML1 is likely to be an essential regulator of lysosome ion homeostasis. We specifically hypothesize that stimulating TRPML1's Fe2+/Ca2+ channel activity in the lysosome using synthetic agonists can alleviate neurodegeneration associated with ML4 or NPC.
To this end, a high throughput screen was developed in a miniaturized format to screen against the Molecular Libraries Small Molecule Repository (MLSMR) to find small molecules that act either as inhibitors or agonist against the TRPML1 channel.
NIH Chemical Genomics Center [NCGC]
NIH Molecular Libraries Probe Centers Network [MLPCN]
Assay Submitter (PI): Haoxing Xu, University of Michigan Ann Arbor
TRPML1-DL cells are dissociated from flasks, counted and, brought up to a density of 500,000 cells per mL of media containing a 1X Tet inducer. Using a Multidrop Combi, 3uL of this cell solution is dispensed to each well of a 1536 TC treated, black, clear bottom hi base plate for a final cell density of 1,500 cells per well. The assay plates are incubated overnight (approximately 16 hours) at 37 degrees C and 5% CO2. Using a Multidrop Combi, 2uL of ABD Ca8 no wash dye plus quencher is added to each well. The assay plates incubate at room temperature in the dark for 45-90 minutes. The assay plate is read on the FDSS using the following protocol: 10 second baseline read, 23nL of compounds and controls are added using 1536 pintool, agonist read for 110 seconds, 1 uL EC80 addition (4uM final 54-4 diluted in media), antagonist read for 110 seconds.

| SMILES | activation |
| --- | --- |
| COc1cccc(C(=O)NCC2(N3CCCCC3)CCCCC2)c1 | inactive: -0.546% |
| COc1ccc(Cl)cc1C(=O)NCC1(N(C)C)CCCCC1 | inactive: -1.27% |
| COc1ccc(C(=O)NCC2(N(C)C)CCCCC2)cc1Cl | inactive: -0.542% |
| O=C(NCC1(N2CCCCC2)CCCCC1)c1cccc(Cl)c1 | inactive: 2.62% |
| O=C(CBr)c1ccc(Cl)cc1 | inactive: -0.634% |
| CN(C)C1(CNC(=O)c2ccc(Br)cc2)CCCCC1 | inactive: 0.0889% |
| COc1cc(C(=O)NCC2(N(C)C)CCCCC2)c([N+](=O)[O-])cc1OC | inactive: 0.788% |
| C=C(C)C#CC(O)(C(=O)OC1CCN(C)CC1)c1ccccc1 (stereo unspecified) | inactive: -0.0355% |
| Cc1cccc(C(=O)NCC2(N(C)C)CCCCC2)c1 | inactive: -0.693% |
| COc1cc(C(=O)NCC2(N(C)C)CCCCC2)cc(OC)c1OC | inactive: -0.852% |
| COc1ccc(Br)c(C(=O)NCC2(N3CCCCC3)CCCCC2)c1 | inactive: 1.96% |
| CC(C)Oc1ccc(C(=O)NCC2(N(C)C)CCCCC2)cc1 | inactive: 0.934% and inactive: -0.286% |
| O=C(OCCN1CCCC1)C(O)(c1ccccc1)c1ccccc1 | inactive: 0.641% |
| CN(C)c1cccc(C(=O)NCC2(N(C)C)CCCCC2)c1 | inactive: -0.759% |
| COc1cccc(C(=O)NCC2(N3CCOCC3)CCCCC2)c1 | inactive: 0.711% |
| O=C(OC1CN2CCC1CC2)C(CO)(c1ccccc1)c1ccccc1 (stereo unspecified) | inactive: -0.103% |
| CC(C)COc1ccc(C(=O)NCC2(N(C)C)CCCCC2)cc1 | inactive: -0.0301% |
| CN(C)C1(CNC(=O)c2cccc(Cl)c2)CCCCC1 | inactive: 0.247% |

| SMILES | activation |
| --- | --- |
| CCN(CC)CC(C)C(C)OC(=O)C(O)(c1ccccc1)c1ccccc1 (stereo unspecified) | inactive: 0.74% |
| CC(C)N1C(=O)CC2(CCN(CCOC(=O)C(O)(c3ccccc3)c3ccccc3)CC2)C1=O | inactive: -0.654% |
| Cc1ccc(C(=O)NCC2(N3CCCCC3)CCCCC2)cc1 | inactive: 0.45% |
| CN(C)C1(CNC(=O)c2ccccc2F)CCCCC1 | inactive: 1.02% |
| O=C(NCC1(N2CCCCC2)CCCCC1)c1cc([N+](=O)[O-])ccc1Cl | inactive: 0.328% |
| CN1[C@@H]2CC[C@H]1CC(OC(=O)C(O)(c1ccccc1)c1ccccc1)C2 (stereo partly specified) | inactive: 0.406% |
| C=CCN1CCN(CCOC(=O)C(O)(c2ccccc2)c2ccccc2)CC1 | inactive: 3.03% |
| O=C(NCC1(N2CCCCC2)CCCCC1)c1cc(F)c(F)cc1Cl | inactive: -0.15% |
| COc1ccc(C(=O)NCC2(N(C)C)CCCCC2)cc1 | inactive: 2.07% |
| CCOc1cccc(C(=O)NCC2(N(C)C)CCCCC2)c1 | inactive: 0.309% |
| CCN1CCCC(OC(=O)C2(O)c3ccccc3C=Cc3ccccc32)C1 (stereo unspecified) | inactive: -0.0359% |
| Cc1cc(C(=O)NCC2(N3CCCCC3)CCCCC2)ccc1[N+](=O)[O-] | inactive: 0.817% |
| O=C(NCC1(N2CCCCC2)CCCCC1)c1cccc(Br)c1 | inactive: 1.63% |
| Cc1ccccc1C(=O)NCC1(N2CCCCC2)CCCCC1 | inactive: 0.816% |
| CN(C)C1(CNC(=O)c2ccccc2[N+](=O)[O-])CCCCC1 | inactive: 1.42% |
| CN(C)c1ccc(C(=O)NCC2(N(C)C)CCCCC2)cc1 | inactive: -0.613% |
| CN(C)C1CCCC1OC(=O)C(O)(c1ccccc1)c1ccccc1 (stereo unspecified) | inactive: 0.238% |
| CCCCOc1ccccc1C(=O)NCC1(N(C)C)CCCCC1 | inactive: 1.08% |
